Binding of CDR-mutated scFvs to a peptide of the spike HR2 region

Target peptide (SARS-CoV-2 spike, HR2 region): PDVDLGDISGINAS

Ab-14 is the parent antibody, in scFv form: VH, then a 15-residue (Gly4Ser)3 linker, then VL. The heavy chain is unchanged in all variants.
VH: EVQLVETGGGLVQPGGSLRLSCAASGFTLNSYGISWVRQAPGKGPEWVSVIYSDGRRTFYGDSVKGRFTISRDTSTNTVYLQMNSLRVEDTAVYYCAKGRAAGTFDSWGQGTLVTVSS
VL: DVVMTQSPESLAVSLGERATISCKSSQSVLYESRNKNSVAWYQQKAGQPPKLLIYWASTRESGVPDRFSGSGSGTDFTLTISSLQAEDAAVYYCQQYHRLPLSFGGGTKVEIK

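Phage display of a naive human antibody library on the peptide gave the parent. This is the validation round: designs drawn from the data on random variants, tested in the same kind of assay. Several design methods are mixed in this list. The assay is AlphaSeq: two haploid yeast populations carry antibody and antigen on their surface. After mating in shaken culture at 30 °C for 16 h, diploids were selected and their barcode pairs sequenced. Each replicate has its own calibration line, from reference interactions of the BCL2 family. There are six technical replicates.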

Each variant is given by its three light chain CDRs, as the data file delimits them; those of the parent are KSSQSVLYESRNKNSVA, WASTRES, QQYHRLPLS. Variants here have more than six changes. Values are apparent Kd, the geometric mean of the replicates that gave a signal; lower means stronger binding. The authors averaged sequences with at least three values out of six and counted those with two or fewer as poor binders. Values of this round are not directly comparable with the first-round values of the same sequences. As a blank, each scFv also met three strains without target: over all light chain designs, 4% of these pairings were detected, typically at 430 nM and seldom below 38 nM. For each scFv, signals with the empty controls are counted beside the result.

* MLQIEPNGYMGMRSNVA / DGVLVRM / QQYARLPLM -> 15 nM (6 of 6 replicates; controls 0 of 18)
* KLDSHEQHGTAQNSAMA / NATVSTQ / QQYSRLPLS -> 2.8 nM (6 of 6 replicates; controls 0 of 18)
* KLSQSMPYEQRAKNSVA / NASQRES / QQYHRLPLS -> 1.3 nM (6 of 6 replicates; controls 5 of 18)
* KLRNDFMENKQNQSNIA / AHHESIK / QQYSMLPLS -> 110 nM (4 of 6 replicates; controls 0 of 18)
* KISQNMGETQRNKNSVA / EVSLVPS / QQYWRLPLS -> 13 nM (6 of 6 replicates; controls 0 of 18)
* KLDQKDRVNGMACYNVA / DSNNRLD / QQYHRLPLI -> 7.7 nM (6 of 6 replicates; controls 3 of 18)
* KISQMVRVGATKSNSIA / EMVTRAN / QQYHRLPLA -> 9.5 nM (6 of 6 replicates; controls 0 of 18)
* MISQLWNMGQFAINSVA / QASERSE / QQYDRLPLM -> 24 nM (6 of 6 replicates; controls 0 of 18)
* KHSWSVELESRLKNSVA / NASTREW / QQYHRLPLS -> 47 nM (6 of 6 replicates; controls 2 of 18)
* KFQQSELYGERNSNSVA / HASLRES / QQYHRLPLS -> 1.5 nM (6 of 6 replicates; controls 0 of 18)
* KLYQSEWYESRMKNNVA / NASVRES / QQYHRLPLS -> 1.9 nM (6 of 6 replicates; controls 0 of 18)
* TISQSAQQESHNKNSVA / DLSVRGS / QQYDRLPLS -> 1.6 nM (6 of 6 replicates; controls 2 of 18)
* MMSQVTGLGTRHRNNVA / QTSTREP / QQYDHLPLI -> 6.0 nM (6 of 6 replicates; controls 0 of 18)
* MVSQLMLWGHLAKNSIA / EAEHRCN / QQYDRLPLI -> 63 nM (4 of 6 replicates; controls 0 of 18)
* MISQLMNMGTFAINSVA / QASIRNE / QQYDRLPLM -> 140 nM (4 of 6 replicates; controls 0 of 18)
* TLGTSTLEESRNKNSVA / EMSLREA / QSYNRLPLS -> 93 nM (6 of 6 replicates; controls 0 of 18)
* KIGMQVTYQSTVNNAIA / QMTTREE / QQYHRLPLS -> 5.2 nM (6 of 6 replicates; controls 0 of 18)
* MISQLYNMGTFTINSVA / QASLRNE / QQYDRLPLM -> 95 nM (6 of 6 replicates; controls 0 of 18)
* HVKEDLNMGMKFQSSVA / SGAHRED / QQYYRLPLG -> 1.7 nM (6 of 6 replicates; controls 0 of 18)
* RIQMGDLEGRTAWNNIA / DMEESYR / QQYVRLPLY -> 4.5 nM (6 of 6 replicates; controls 0 of 18)
* MVTQMAMTGMKNKRSVA / NAEMRAD / QQYHRLPFI -> 13 nM (5 of 6 replicates; controls 0 of 18)
* KISINQMHEYKMRSNIA / NTSQKAM / QQYFHLPLM -> 6.4 nM (6 of 6 replicates; controls 0 of 18)
* MVNGLTDHLSKNTNNVA / ETTTREA / QQYDRLPLV -> 3.7 nM (6 of 6 replicates; controls 1 of 18)
* MISQLYNMGQFAINSVA / QASLRNE / QQYDRLPLI -> 93 nM (6 of 6 replicates; controls 0 of 18)
* KIGMTLNTLMHTKNNVA / DLVTREE / QQYHRLPLS -> 7.2 nM (6 of 6 replicates; controls 0 of 18)
* KLSQSEPYERRNKNSVA / NASYRMS / QQYHRLPLS -> 1.6 nM (6 of 6 replicates; controls 0 of 18)
* RVTNEMGKEMERKQSVA / ETEQRCM / QQYARLPLI -> 5.6 nM (6 of 6 replicates; controls 0 of 18)
* MISGSVMSESRLKNSVA / QTTTREY / QQYDRLPLS -> 5.8 nM (6 of 6 replicates; controls 0 of 18)
* TISQVTGLLQHNSNSVA / DMNTRGS / QQYDRLPLS -> 2.6 nM (6 of 6 replicates; controls 5 of 18)
* MVNGLTDHLSKNTNNVA / ETTTREE / QQYDRLPLV -> 1.8 nM (6 of 6 replicates; controls 0 of 18)
* HLSQSVDMESVHKNSIA / DLMTRES / QQYHRLPLS -> 1.2 nM (6 of 6 replicates; controls 1 of 18)
* KLSMVTGHLSYEKNNVA / EMETREN / QQYDRLPLS -> 3.7 nM (6 of 6 replicates; controls 0 of 18)
* GMSDSMTETIADANHIA / DAEARDV / QQYARLPLI -> 2.0 nM (6 of 6 replicates; controls 1 of 18)
* KLSMVTGHMSVSKNNVA / EMETREY / QQYDRLPLS -> 19 nM (6 of 6 replicates; controls 0 of 18)
* KLAMYMEMNARTNHHIA / EANLKPS / QQYNRLPFS -> 11 nM (6 of 6 replicates; controls 1 of 18)
* IVSQVMSWGIHAKNSIA / EAQMRLN / QQYDRLPLF -> 100 nM (6 of 6 replicates; controls 5 of 18)
* KLSMVTGHMSMAKNNVA / EMVTREK / QQYNRLPLS -> 4.5 nM (6 of 6 replicates; controls 2 of 18)
* TISELYNQALGMRNNVA / NNQTRED / QQYARLPLS -> 23 nM (6 of 6 replicates; controls 0 of 18)
* MMSQVWGMGQRHRNNVA / QTSTREE / QQYDRLPLV -> 7.7 nM (6 of 6 replicates; controls 0 of 18)

From the AlphaSeq antibody data of Li et al. 2023 (doi:10.1038/s41467-023-39022-2), copy in the FLAb collection.